The record followed here is article PMC5595328.

Holding throughout (experiment): purified protein
Data set [1] has as its system Nc1ncnc2c1ncn2[C@@H]1O[C@H](COP(=O)(O)OP(=O)(O)OP(=O)(O)O)[C@@H](O)[C@H]1O. The note with it: sigmoidal fit, Hill coefficient 1.87; 20 mM Tris pH 7.5, 200 mM NaCl, MgCl2, 37°C; pH 7.5; 37.0 °C.
Data set [2] relates to CC(=O)OCC1=C(C(=O)O)N2C(=O)[C@@H](NC(=O)Cc3cccs3)[C@H]2SC1. The note with it: sigmoidal fit, Hill coefficient 1.95; 50 mM Tris-HCl pH 7.2, 0.1 mg/mL BSA, 100 μM ZnCl2, 30°C; pH 7.2; 30.0 °C.
Data set [3] has as its system CCN1CCN(C(=O)N[C@@H](C(=O)N[C@@H]2C(=O)N3[C@@H]2SC(C)(C)[C@@H]3C(=O)O)c2ccccc2)C(=O)C1=O. The following applies: sigmoidal fit, Hill coefficient 2.07; 50 mM Tris-HCl pH 7.2, 0.1 mg/mL BSA, 100 μM ZnCl2, 30°C; pH 7.2; 30.0 °C.
Data set [4] deals with CO/N=C(\C(=O)N[C@@H]1C(=O)N2C(C(=O)O)=C(COC(N)=O)CS[C@H]12)c1ccco1. The note with it: sigmoidal fit, Hill coefficient 1.45; 50 mM Tris-HCl pH 7.2, 0.1 mg/mL BSA, 100 μM ZnCl2, 30°C; pH 7.2; 30.0 °C.
Data set [5] has as its system CC1(C)S[C@@H]2[C@H](NC(=O)[C@H](N)c3ccccc3)C(=O)N2[C@H]1C(=O)O. The note with it: sigmoidal fit, Hill coefficient 1.73; 50 mM Tris-HCl pH 7.2, 0.1 mg/mL BSA, 100 μM ZnCl2, 30°C; pH 7.2; 30.0 °C.
The subject of data set [6] is CO/N=C(\C(=O)N[C@@H]1C(=O)N2C(C(=O)[O-])=C(C[N+]3(C)CCCC3)CS[C@H]12)c1csc(N)n1. The following applies: sigmoidal fit, Hill coefficient 1.75; 50 mM Tris-HCl pH 7.2, 0.1 mg/mL BSA, 100 μM ZnCl2, 30°C; pH 7.2; 30.0 °C.
The subject of data set [7] is C[C@@H](O)[C@H]1C(=O)N2C(C(=O)O)=C(S[C@@H]3CN[C@H](C(=O)N(C)C)C3)[C@H](C)[C@H]12. The note with it: sigmoidal fit, Hill coefficient 1.39; 50 mM Tris-HCl pH 7.2, 0.1 mg/mL BSA, 100 μM ZnCl2, 30°C; Fig 2 legend prints 0.35 (± 0.063); pH 7.2; 30.0 °C.
Data set [8] concerns CO[C@@]1(NC(=O)C(C(=O)O)c2ccc(O)cc2)C(=O)N2C(C(=O)O)=C(CSc3nnnn3C)CO[C@@H]21. The following applies: sigmoidal fit, Hill coefficient 2.40; 50 mM Tris-HCl pH 7.2, 0.1 mg/mL BSA, 100 μM ZnCl2, 30°C; Fig 2 legend prints 0.6 (± 0.06); pH 7.2; 30.0 °C.
The subject of data set [9] is C[C@@H](O)[C@H]1C(=O)N2C(C(=O)O)=C(SCCN=CN)C[C@H]12. The following applies: sigmoidal fit, Hill coefficient 1.48; 50 mM Tris-HCl pH 7.2, 0.1 mg/mL BSA, 100 μM ZnCl2, 30°C; pH 7.2; 30.0 °C.

For “VarF (Vibrio cholerae O1 biovar El Tor str. N16961)”, the Km in data set [1] is 795 (± 81.2) μM.

For “VarG (Vibrio cholerae O1 biovar El Tor str. N16961)”, the Km came to 330 ± 50 µM in data set [2]; 480 ± 70 µM in [3]; 630 ± 180 µM in [4]; 1000 ± 80 µM in data set [5]; 1110 ± 810 µM in data set [6]; 340 ± 60 µM in [7]. Also, the Km in data set [8] stood at 520 ± 30 µM; in data set [9], 1680 ± 790 µM. In addition, the Vmax (commonly the top rate of the reaction or transport when substrate is in excess) in data set [2] was 0.76 µM/min; in data set [3] it was 1.98 µM/min; in [4], 1.74 µM/min; in data set [5], 28.9 µM/min; in data set [6], 2.51 µM/min; in data set [7], 18.6 µM/min. Moreover, the Vmax in data set [8] was 1.83 µM/min; in data set [9] it was 70 µM/min. The kcat (usually the maximal rate divided by the concentration of active sites) in data set [2] turned out to be 0.06 s⁻¹; in data set [3], 0.11 s⁻¹; in data set [4] it was 0.15 s⁻¹; in [5], 2.41 s⁻¹; in data set [6], 0.21 s⁻¹; in data set [7], 62.1 s⁻¹. Besides, the kcat in data set [8] is 0.15 s⁻¹; in data set [9], 234 s⁻¹. Besides, the kcat/Km (as a rule, the turnover number divided by the Michaelis constant) came to 180 M⁻¹ s⁻¹ in [2]; 230 M⁻¹ s⁻¹ in data set [3]; 240 M⁻¹ s⁻¹ in data set [4]; 2400 M⁻¹ s⁻¹ in data set [5]; 190 M⁻¹ s⁻¹ in [6]; 180000 M⁻¹ s⁻¹ in [7]. Moreover, the results for the kcat/Km in data set [8] and in data set [9] were 290 M⁻¹ s⁻¹ and 140000 M⁻¹ s⁻¹, respectively.
